{
  "sequences": {"note": "Sequences of proteins named here, by UniProt entry; tags and fusion partners are left off. A change or cut given only in a name is not applied to a line headed by its entry.", "UniProt Q13255": "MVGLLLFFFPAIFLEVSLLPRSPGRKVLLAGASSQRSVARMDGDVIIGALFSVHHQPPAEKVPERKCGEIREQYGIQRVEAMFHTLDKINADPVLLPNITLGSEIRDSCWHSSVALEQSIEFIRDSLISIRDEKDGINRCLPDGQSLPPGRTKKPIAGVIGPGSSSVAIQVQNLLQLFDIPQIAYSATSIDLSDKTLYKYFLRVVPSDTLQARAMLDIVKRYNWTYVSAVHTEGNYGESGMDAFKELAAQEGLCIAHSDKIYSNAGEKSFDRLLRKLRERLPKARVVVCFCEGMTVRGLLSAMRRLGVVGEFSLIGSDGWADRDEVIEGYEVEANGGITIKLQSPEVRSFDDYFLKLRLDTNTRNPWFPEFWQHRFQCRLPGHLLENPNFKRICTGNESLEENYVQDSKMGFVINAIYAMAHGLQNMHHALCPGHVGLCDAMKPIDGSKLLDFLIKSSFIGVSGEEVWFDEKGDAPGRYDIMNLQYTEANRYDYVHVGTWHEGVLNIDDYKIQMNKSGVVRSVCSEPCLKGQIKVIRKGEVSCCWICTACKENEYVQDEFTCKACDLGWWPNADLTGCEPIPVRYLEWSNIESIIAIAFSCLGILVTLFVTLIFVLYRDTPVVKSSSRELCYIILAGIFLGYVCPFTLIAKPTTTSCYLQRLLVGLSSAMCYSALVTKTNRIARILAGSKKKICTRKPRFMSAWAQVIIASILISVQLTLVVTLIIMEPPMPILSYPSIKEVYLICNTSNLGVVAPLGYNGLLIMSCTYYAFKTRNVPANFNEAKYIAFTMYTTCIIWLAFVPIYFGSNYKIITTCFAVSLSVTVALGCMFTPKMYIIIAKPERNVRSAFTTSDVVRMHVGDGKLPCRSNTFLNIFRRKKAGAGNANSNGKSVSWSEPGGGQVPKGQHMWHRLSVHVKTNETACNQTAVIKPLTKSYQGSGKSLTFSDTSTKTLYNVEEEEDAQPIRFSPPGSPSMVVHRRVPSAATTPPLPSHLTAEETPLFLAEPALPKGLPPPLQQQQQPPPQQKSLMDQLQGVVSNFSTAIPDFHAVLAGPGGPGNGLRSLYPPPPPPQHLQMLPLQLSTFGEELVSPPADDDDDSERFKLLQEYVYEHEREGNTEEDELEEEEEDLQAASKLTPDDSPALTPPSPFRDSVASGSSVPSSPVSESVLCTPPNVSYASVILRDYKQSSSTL"},
  "source": "BindingDB's records for doi:10.1046/j.1471-4159.2000.0752590.x",
  "about": "(F. Hoffmann-La Roche, 2000)",
  "target": "Metabotropic glutamate receptor 1 (Homo sapiens, UniProt Q13255)",
  "data": [
    {"smiles": "N[C@@H](Cn1oc(=O)[nH]c1=O)C(=O)O", "note": "[2-amino-3-(3,5-dioxo[1,2,4]oxadiazolidin-2-yl)propionic acid]", "values": [
      {"measurement": "Ki", "value": 10, "unit": "nM"}
    ]}
  ]
}
